Reference: patent US10385145B1, “Liquid photo initiating compound and uses of the same” (CHITEC TECHNOLOGY CO., LTD., priority 2018, dated 2019)

Assay: Solubility test: dissolution in acrylate mixtures I to III
Type: physicochemical
Settings: one-hour ultrasonication at room temperature
Description: Mixtures I to III were prepared according to the composition provided below, and then 6 parts by weight of photoinitiator Trgacure® 369 (available from IGM), photoinitiator R-gen® 919 (available from Chitec Technology Co., Ltd.) or photo initiating compound Ia was added to each of the mixtures I to III. The obtained mixtures were ultrasonicated for 1 hour at room temperature, and the dissolution of each of Irgacure® 369, R-gen® 919 and photo initiating compound Ia was observed and described in the following Table 1.

Compound: CCC(Cc1ccccc1)(C(=O)c1ccc(N2CCOCC2)cc1)N(C)C (stereo not drawn) [Irgacure® 369]
- Dissolution, Mixture I (6 parts by weight photoinitiator in Mixture I): Completely
- Dissolution, Mixture II (6 parts by weight photoinitiator in Mixture II): Only a small part
- Dissolution, Mixture III (6 parts by weight photoinitiator in Mixture III): Only a small part
